Biological target: T1, hTA1 (Homo sapiens, UniProt Q96RJ0)
T1 sequence (Q96RJ0 1-339): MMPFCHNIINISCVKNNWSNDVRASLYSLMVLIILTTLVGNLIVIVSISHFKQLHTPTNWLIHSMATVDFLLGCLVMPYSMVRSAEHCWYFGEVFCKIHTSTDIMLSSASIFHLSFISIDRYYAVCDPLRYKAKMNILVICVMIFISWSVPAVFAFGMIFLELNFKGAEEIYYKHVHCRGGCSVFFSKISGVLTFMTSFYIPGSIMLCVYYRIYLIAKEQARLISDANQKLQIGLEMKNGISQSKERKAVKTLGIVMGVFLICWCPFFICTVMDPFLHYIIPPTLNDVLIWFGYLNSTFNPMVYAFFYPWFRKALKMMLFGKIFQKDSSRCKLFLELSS
Experiment: GloSensor cAMP accumulation assay, concentration response, wild-type hTA1 in transfected HEK293T cells;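 also: luminescence read after 30 min compound exposure at room temperature in cells preloaded with D-Luciferin, reflecting Gs-driven cAMP rise, efficacy scaled to the maximal β-PEA response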
Format: cell-based
Parameters: expressed in transfected cells; host or cells: HEK293T
Settings: log[Compound], M = -6; replicate wells

- Normalized Luminescence Counts for WT hTA1: 0.177
Structure (SMILES): CNC[C@H](O)c1ccc(O)c(O)c1 [epinephrine]
